# Target: T1, Prolyl endopeptidase (Rattus norvegicus, UniProt O70196)
# T1 sequence (O70196 whole entry): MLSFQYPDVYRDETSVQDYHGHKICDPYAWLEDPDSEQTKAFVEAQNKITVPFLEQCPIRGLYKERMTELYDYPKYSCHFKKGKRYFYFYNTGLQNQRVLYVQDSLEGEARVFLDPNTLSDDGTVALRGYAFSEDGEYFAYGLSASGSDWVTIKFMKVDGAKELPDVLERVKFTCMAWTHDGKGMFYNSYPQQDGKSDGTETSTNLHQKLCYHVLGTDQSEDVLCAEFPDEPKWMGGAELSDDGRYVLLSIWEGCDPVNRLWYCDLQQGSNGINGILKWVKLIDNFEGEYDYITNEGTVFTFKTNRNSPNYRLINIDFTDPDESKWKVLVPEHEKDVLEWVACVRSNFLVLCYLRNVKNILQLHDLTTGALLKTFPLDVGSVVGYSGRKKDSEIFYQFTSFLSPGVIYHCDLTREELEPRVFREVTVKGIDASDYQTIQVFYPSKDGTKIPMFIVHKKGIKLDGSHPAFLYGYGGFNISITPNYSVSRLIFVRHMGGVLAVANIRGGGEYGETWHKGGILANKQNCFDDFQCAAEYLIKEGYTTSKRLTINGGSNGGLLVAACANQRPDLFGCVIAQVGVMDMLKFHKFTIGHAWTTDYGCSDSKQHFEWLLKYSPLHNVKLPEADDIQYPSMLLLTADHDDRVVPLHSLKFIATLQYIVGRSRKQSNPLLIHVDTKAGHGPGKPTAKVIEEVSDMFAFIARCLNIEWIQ
# Assay: Inhibition of POP in Sprague-Dawley rat brain homogenates
# Type: tissue-based
smiles,measurement,value
O=C([C@@H]1CCCN1C(=O)CCCN1C(=O)NC(c2ccccc2)(c2ccccc2)C1=O)N1CCCC1,IC50,41 nM

# Source: ChEMBL document CHEMBL1140217, “Prolyl oligopeptidase inhibition by N-acyl-pro-pyrrolidine-type molecules” (J Med Chem, 2008)
